# Values of other authors as cited in patent US11319376B2, “Combination of glucagon receptor antagonists and PI3K pathway inhibitors for the treatment of cancer” (REMD Biotherapeutics, Inc., priority 2016, dated 2022).
# Amino acid sequences for entries named in this document (tags omitted).
# UniProt P78527, whole entry: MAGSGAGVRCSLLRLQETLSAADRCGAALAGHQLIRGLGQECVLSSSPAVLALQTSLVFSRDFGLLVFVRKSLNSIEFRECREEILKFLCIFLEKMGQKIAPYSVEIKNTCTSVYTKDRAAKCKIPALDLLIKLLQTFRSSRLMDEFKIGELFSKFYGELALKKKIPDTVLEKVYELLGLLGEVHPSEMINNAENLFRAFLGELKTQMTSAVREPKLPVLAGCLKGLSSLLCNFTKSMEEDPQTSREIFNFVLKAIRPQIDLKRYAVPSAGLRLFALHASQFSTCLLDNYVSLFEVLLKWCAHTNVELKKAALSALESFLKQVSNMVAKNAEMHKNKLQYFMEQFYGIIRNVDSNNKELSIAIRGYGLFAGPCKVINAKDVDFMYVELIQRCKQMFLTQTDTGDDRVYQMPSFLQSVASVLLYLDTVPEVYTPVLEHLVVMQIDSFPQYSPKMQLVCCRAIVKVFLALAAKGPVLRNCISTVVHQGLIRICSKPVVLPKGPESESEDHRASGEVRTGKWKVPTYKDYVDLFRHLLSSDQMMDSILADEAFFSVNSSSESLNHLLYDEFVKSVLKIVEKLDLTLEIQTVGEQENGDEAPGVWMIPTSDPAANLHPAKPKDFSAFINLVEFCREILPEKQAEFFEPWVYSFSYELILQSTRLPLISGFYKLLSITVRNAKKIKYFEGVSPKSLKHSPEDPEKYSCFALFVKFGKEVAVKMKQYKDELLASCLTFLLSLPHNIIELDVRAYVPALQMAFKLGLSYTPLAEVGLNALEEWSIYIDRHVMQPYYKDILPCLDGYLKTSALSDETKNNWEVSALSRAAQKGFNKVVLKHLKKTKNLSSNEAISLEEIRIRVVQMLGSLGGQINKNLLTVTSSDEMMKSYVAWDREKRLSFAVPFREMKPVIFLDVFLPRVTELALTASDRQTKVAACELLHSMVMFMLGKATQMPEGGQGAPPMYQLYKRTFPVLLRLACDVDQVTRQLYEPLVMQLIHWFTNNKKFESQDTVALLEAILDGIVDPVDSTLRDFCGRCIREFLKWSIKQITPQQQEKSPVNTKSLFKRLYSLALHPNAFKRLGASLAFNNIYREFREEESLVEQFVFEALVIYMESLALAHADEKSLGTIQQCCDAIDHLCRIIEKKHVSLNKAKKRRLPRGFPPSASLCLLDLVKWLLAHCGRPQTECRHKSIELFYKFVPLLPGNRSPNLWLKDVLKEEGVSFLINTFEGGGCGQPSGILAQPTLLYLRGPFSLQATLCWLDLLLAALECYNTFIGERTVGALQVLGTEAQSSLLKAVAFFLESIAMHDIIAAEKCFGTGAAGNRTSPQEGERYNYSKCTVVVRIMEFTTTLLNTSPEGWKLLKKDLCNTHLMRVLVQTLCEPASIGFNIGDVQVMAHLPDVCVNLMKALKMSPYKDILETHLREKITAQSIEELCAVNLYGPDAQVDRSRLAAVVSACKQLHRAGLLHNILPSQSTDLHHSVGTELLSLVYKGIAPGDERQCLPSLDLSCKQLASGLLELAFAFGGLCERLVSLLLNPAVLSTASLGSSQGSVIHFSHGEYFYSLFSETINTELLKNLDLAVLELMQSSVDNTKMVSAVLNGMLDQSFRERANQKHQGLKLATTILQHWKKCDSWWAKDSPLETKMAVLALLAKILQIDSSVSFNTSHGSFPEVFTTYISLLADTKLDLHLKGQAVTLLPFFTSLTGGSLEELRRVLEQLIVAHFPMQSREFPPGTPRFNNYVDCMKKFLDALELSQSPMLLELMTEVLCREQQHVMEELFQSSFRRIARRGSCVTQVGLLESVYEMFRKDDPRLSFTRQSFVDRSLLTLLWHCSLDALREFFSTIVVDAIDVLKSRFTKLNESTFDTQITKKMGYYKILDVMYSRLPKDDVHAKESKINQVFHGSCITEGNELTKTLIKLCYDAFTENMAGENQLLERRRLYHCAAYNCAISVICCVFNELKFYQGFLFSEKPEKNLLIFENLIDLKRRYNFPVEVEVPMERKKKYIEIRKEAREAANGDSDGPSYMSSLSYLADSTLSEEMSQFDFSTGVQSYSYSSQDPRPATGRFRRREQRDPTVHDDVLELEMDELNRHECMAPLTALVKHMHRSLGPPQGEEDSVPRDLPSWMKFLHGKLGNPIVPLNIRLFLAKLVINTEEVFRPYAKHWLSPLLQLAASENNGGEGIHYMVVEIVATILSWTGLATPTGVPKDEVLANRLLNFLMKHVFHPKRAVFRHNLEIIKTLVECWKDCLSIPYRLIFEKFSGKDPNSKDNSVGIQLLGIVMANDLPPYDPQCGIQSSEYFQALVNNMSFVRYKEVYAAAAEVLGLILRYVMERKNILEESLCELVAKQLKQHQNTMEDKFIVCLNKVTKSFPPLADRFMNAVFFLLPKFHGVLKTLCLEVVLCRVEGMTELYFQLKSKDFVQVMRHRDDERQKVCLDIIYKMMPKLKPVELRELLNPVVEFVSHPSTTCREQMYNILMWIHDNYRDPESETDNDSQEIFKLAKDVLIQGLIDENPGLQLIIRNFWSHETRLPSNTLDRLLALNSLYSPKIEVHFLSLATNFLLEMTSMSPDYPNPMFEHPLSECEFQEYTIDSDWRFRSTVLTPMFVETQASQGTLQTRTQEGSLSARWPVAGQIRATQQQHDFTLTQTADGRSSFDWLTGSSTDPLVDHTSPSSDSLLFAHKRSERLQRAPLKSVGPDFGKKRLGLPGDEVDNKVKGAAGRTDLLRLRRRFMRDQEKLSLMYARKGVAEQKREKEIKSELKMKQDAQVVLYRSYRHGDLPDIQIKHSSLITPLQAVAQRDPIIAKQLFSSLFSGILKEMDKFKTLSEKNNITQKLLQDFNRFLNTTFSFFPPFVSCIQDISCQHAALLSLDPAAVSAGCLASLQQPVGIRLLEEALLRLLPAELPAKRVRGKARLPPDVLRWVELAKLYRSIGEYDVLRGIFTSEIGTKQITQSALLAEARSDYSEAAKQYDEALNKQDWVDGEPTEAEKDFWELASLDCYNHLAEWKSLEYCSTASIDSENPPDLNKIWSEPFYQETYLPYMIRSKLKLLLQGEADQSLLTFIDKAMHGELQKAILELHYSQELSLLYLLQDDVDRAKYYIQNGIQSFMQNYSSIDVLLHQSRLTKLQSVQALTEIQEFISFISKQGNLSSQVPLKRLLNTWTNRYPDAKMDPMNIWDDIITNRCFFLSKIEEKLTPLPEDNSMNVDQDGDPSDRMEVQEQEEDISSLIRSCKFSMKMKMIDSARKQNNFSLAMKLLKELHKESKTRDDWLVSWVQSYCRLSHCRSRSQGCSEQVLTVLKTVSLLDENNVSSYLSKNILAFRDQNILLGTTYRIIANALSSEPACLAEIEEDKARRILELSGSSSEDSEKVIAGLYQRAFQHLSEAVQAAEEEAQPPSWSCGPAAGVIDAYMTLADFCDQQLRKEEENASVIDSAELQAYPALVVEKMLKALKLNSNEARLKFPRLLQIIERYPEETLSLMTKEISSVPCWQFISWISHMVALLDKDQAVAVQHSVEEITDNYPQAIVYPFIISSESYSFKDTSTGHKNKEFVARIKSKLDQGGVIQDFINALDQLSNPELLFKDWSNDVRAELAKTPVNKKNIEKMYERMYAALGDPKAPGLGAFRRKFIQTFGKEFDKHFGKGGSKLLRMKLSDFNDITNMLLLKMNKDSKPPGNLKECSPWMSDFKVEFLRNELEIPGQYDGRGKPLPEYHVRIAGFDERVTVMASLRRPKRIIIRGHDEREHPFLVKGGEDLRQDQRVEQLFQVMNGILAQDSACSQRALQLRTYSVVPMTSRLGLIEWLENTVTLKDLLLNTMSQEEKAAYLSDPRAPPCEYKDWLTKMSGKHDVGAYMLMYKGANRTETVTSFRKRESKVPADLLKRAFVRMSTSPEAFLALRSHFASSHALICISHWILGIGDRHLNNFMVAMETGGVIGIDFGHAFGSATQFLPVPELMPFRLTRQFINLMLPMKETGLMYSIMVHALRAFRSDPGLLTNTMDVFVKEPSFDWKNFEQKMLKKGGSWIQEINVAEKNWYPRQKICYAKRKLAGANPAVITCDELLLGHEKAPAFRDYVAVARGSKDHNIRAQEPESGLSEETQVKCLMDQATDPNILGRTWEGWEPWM
# Molecular target: DNAPK (Homo sapiens, UniProt P78527)
# Conditions: read-out: Target Selectivity (IC50) DNAPK; cited from earlier work
structure (smiles),measurement,value
"Cc1c(CN2CCN(C(=O)[C@H](C)O)CC2)sc2c(N3CCOCC3)nc(-c3cnc(N)nc3)nc12 [GDC-0980, apitolisib]",IC50,0.623 µM
